For the experiment, the target named is T1, WT S. Typhimurium DNA gyrase (Salmonella typhimurium, UniProt P0A2I3+P37411).
T1 construct: made in house; host or cells: Escherichia coli BL21(DE3)
Nature of the experiment: Fluoroquinolone-inhibited DNA supercoiling assay, WT DNA gyrase. It counts as biochemical. The note with it: read-out: IC50s ± SD, WT (converted). The text has this: Recombinant DNA gyrase was obtained as separate subunits, GyrA and GyrB. In total, plasmids encoding nine subunits including WT GyrA and GyrB as well as seven GyrA with amino acid substitutions (Ser83Phe, Ser83Ile, Ser83Tyr, Asp87Gly, Asp87Asn, Asp87Tyr, and […]) in the quinolone resistance determining region were constructed as described in our previous study ([38]). These plasmids were introduced into Escherichia coli BL21(DE3) (Merck KGaA, Darmstadt, Germany), and protein expression was induced in the bacterial cells. A transformed E. coli was inoculated into Luria-Bertani broth supplemented with ampicillin (50 mg/L) and incubated at 37°C until the optical density value reached 0.60. Expression of GyrA and GyrB was induced by adding 1 mM isopropyl beta-D-1-thiogalactopyranoside (Wako Pure Chemical Industries Ltd, Osaka, Japan) followed by incubation at 16°C for 40 h (for GyrA), or 18°C for 13 h (for GyrB). […] The protein purity was assessed by sodium dodecyl sulfate-polyacrylamide gel electrophoresis (SDS-PAGE) (ATTO, Tokyo, Japan) as shown in Fig. 7.
[…]. […] The amount of supercoiled DNA was quantified by its intensity using ImageJ, the digital image processing software (https://imagej.nih.gov/ij/download.html). […]

Chains of the proteins cited; added tags and fusions are not shown.
UniProt P37411, whole entry: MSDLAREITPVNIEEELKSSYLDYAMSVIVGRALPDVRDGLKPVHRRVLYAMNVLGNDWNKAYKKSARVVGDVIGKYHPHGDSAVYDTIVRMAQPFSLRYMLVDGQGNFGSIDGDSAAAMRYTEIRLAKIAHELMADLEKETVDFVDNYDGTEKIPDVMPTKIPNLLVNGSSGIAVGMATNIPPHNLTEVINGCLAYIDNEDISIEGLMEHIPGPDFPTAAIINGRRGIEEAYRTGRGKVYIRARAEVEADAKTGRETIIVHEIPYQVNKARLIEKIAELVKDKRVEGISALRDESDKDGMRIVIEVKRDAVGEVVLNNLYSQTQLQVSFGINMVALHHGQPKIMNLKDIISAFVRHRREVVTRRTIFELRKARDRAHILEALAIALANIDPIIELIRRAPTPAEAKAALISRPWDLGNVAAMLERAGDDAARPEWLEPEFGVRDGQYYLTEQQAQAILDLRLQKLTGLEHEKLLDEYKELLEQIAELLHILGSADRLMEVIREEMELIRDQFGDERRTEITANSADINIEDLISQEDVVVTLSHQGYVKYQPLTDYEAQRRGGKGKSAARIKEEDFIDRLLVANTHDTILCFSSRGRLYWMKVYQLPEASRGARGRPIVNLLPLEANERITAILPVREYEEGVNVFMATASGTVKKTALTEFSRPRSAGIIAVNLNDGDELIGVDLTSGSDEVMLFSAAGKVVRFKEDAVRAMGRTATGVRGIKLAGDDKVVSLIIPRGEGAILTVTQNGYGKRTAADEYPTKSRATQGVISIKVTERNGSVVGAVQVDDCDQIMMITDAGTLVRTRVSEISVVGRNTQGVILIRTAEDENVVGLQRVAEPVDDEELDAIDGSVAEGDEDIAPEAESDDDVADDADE

Molecules are shown by their SMILES.

Turning to `O=C(O)c1cn(C2CC2)c2cc(N3CCNCC3)c(F)cc2c1=O` [Ciprofloxacin], the IC50 was 217 nM.

Source of the values: paper PMC10715191, “Exploration of the novel fluoroquinolones with high inhibitory effect against quinolone-resistant DNA gyrase of Salmonella Typhimurium” (Microbiology Spectrum, 2023).
